Binding of CDR-mutated scFvs to a peptide of the spike HR2 region

Reference: Engelhart et al. 2022, doi:10.1038/s41597-022-01779-4. File: FLAb, binding data.

All variants were tested on one target, the spike HR2 peptide PDVDLGDISGINAS (SARS-CoV-2).

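The starting antibody came from a phage panning campaign against this peptide. AAYL52 was designed without a model: most single CDR substitutions and a random sample of double and triple ones. In AlphaSeq, yeast of one mating type display the scFv and yeast of the other type display the target. The frequency of each diploid, read from paired DNA barcodes, reflects how well the two displayed proteins bind. Read counts were normalised to the haploid input and turned into Kd by a linear fit to BCL2-family pairs of known affinity, for each replicate. The assay was run in three technical replicates.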

Parent: Ab-95, a human scFv built as VH, a (GGGGS)3 linker, VL. Only the CDRs of the light chain vary.
VH: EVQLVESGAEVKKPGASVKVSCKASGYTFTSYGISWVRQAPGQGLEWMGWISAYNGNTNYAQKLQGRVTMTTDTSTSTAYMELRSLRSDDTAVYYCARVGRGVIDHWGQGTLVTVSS
VL: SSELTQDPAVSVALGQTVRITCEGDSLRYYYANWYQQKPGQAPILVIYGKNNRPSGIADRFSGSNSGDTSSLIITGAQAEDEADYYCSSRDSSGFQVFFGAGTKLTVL

Changes read parent residue, position, new residue, counted from the first residue of the VL shown.
Numbers give log10(Kd / nM), so 0 is 1 nM and 3 is 1 µM. Smaller is tighter.
A mean of the replicates is given; it leaves out those without a signal.
A pair that was not seen in that replicate is written "nd"; this usually means weak binding, but a binder can also be missed.
Nonspecific signal, from three strains lacking the peptide, appeared in 28% of pairings of library AAYL52, centred on 3.91 (5% of these signals below 2.90); values are not corrected for it. For each scFv, signals with the empty controls are counted beside the result, with their mean in brackets.

changes,"replicates, log10 nM",mean log10 Kd (nM),control signals
N51V+F98K,nd nd nd,nd,0/9
S55M+S93E+V97A,3.50 2.89 2.16,2.85,0/9
Y29S+F95N+F98C,2.20 2.51 2.47,2.39,2/9 (3.93)
S26A+Y31D+S92Y,1.65 1.51 1.21,1.46,0/9
R28W+Y30L+N33K,4.25 nd nd,4.25,0/9
Y30H+R90Q+F95W,2.33 2.69 2.52,2.51,5/9 (3.80)
G49K+S88H+F95P,4.68 nd nd,4.68,2/9 (3.43)
Y30I+A32N+V97L,nd 3.91 nd,3.91,1/9 (3.02)
D25V+Y31S+S89R,4.69 nd 3.18,3.94,1/9 (3.88)
S26Y+G94E+V97N,3.17 3.27 2.15,2.86,3/9 (3.73)
Y31V+S88L+F95M,3.38 3.11 3.42,3.30,4/9 (3.44)
Y30E+D91G+Q96D,1.24 1.37 0.54,1.05,1/9 (4.40)
R28K+N33F+G94R,3.51 nd nd,3.51,3/9 (3.93)
Y31I+K50G+P54V,2.84 nd nd,2.84,1/9 (2.82)
L27S+Y29D+R90F,3.79 3.80 nd,3.80,6/9 (4.22)
A32M+S55R+D91Y,3.18 4.57 nd,3.87,2/9 (3.82)
R28A+R53T+S89E,3.51 3.16 2.68,3.12,5/9 (3.43)
D25S+Y29R+N33H,nd nd nd,nd,5/9 (3.95)
N33L+G49M+F95K,nd nd nd,nd,2/9 (4.02)
A32M+G94F+V97N,2.98 nd 2.81,2.90,3/9 (4.14)
G24W+G49E+S93P,3.70 nd 3.95,3.83,5/9 (3.93)
G24I+Y29E+R53S,nd 5.25 nd,5.25,1/9 (3.43)
S55L+G94M,2.90 3.56 nd,3.23,3/9 (3.31)
N52S+G94N,nd nd nd,nd,4/9 (4.11)
L27W+R28K+F98D,3.53 5.41 4.85,4.60,5/9 (4.18)
R53D+S55D+Q96E,5.63 5.77 2.97,4.79,5/9 (4.41)
N51M+D91N+G94W,3.92 3.48 4.06,3.82,4/9 (4.21)
G24D+R53E+F95A,3.84 6.16 3.42,4.47,6/9 (4.04)
L27R+A32S+Q96S,nd 4.33 nd,4.33,4/9 (3.42)
Y31F+A32P+K50W,1.95 1.94 1.57,1.82,3/9 (3.78)
E23G+Y31D+F98G,1.50 1.22 0.56,1.09,2/9 (3.09)
S26H+R53T+F95D,4.43 nd 4.13,4.28,2/9 (4.09)
R53C+S88T+S92V,3.54 3.42 4.33,3.76,3/9 (3.89)
G49C+Q96E+V97I,nd nd nd,nd,0/9
E23C+D91H+S93R,nd 5.54 nd,5.54,3/9 (3.76)
R28I+S55V+R90Y,3.36 nd nd,3.36,0/9
Y30R+F98M,2.89 2.75 3.49,3.04,2/9 (3.58)
S26A+N52S+S89T,3.25 2.37 1.95,2.52,3/9 (3.81)
E23D+G24E+N33Q,3.98 nd nd,3.98,3/9 (4.36)
E23W+S26G+V97W,nd nd nd,nd,2/9 (3.74)
Y31R+P54T+S89R,3.61 nd nd,3.61,3/9 (3.79)
D25S+N51G+P54L,3.32 4.38 2.51,3.40,2/9 (3.70)
K50A+S92D+Q96R,3.48 4.04 3.65,3.72,6/9 (4.27)
K50H+N52D+S88W,2.98 2.61 2.32,2.64,7/9 (4.02)
N52P+D91E+S93I,nd nd nd,nd,1/9 (4.52)

The 5 strongest on average among those seen in every replicate, once more:

changes,"replicates, log10 nM",mean log10 Kd (nM),control signals
Y30E+D91G+Q96D,1.24 1.37 0.54,1.05,1/9 (4.40)
E23G+Y31D+F98G,1.50 1.22 0.56,1.09,2/9 (3.09)
S26A+Y31D+S92Y,1.65 1.51 1.21,1.46,0/9
Y31F+A32P+K50W,1.95 1.94 1.57,1.82,3/9 (3.78)
Y29S+F95N+F98C,2.20 2.51 2.47,2.39,2/9 (3.93)